Results published in ChEMBL document CHEMBL4024754, “Development of Potent, Protease-Resistant Agonists of the Parathyroid Hormone Receptor with Broad β Residue Distribution” (J Med Chem, 2017).
Activity calls are given as the source filed them. The calls are words filed in the database; no cut-off is given here.

The chains behind the UniProt entries cited, without tags or fusion partners. Where a name states a change or a piece, a line headed by the entry shows the natural chain unless it says otherwise.
UniProt Q03431: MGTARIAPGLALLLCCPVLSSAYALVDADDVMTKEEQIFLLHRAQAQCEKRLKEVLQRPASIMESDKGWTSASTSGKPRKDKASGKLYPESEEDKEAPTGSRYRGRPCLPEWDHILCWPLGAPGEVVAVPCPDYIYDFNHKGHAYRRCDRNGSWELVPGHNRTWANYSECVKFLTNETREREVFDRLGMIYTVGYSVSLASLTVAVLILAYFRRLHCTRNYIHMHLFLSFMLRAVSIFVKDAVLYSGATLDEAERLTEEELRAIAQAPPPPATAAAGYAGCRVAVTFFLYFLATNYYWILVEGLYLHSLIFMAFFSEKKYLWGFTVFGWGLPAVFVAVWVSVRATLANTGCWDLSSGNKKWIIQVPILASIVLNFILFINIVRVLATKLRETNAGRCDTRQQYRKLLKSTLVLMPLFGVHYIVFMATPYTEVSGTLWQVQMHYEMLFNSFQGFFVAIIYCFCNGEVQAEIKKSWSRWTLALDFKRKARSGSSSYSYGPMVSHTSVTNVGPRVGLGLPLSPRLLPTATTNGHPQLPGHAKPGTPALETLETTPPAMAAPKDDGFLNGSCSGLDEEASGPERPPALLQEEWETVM

What was measured:
[1] = target: Parathyroid hormone/parathyroid hormone-related peptide receptor (Homo sapiens) (UniProt Q03431); test: Agonist activity at human PTH1 receptor expressed in human GP2.3 cells assessed as induction of cAMP at 0.1 to 100 nM preincubated with simulated intestinal fluid for 45 mins followed by compound transfer to GP2.3 cells by luciferase reporter gene assay; format: functional, cell-based
[2] = target: Parathyroid hormone/parathyroid hormone-related peptide receptor (Homo sapiens) (UniProt Q03431); test: Agonist activity at human PTH1 receptor expressed in human GP2.3 cells assessed as induction of cAMP at 0.1 to 100 nM preincubated with simulated intestinal fluid for 20 mins followed by compound transfer to GP2.3 cells by luciferase reporter gene assay; format: functional, cell-based

ABALOPARATIDE
Activity [1]: Active | Activity [2]: inactive
